From US20240043404A1 (AbbVie Inc., priority 2009, published 2024)

Test system: RS4;11 cells
Experiment: RS4;11 cell viability assay (CellTiter Glo);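 note: acute lymphoblastic leukemia line RS4,11, EC50 derived from percentage of viable cells after treatment relative to untreated controls, cell killing taken as a measure of Bcl-2 inhibition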
Format: cell-based
Conditions: 50,000 cells per well, 10% human serum, 48 hours

EC50 [nM]	SMILES
22.1	CC1(C)CCC(CN2CCN(c3ccc(C(=O)NS(=O)(=O)c4ccc(OCC5C[C@@H]6C[C@H]5[C@H](O)[C@@H]6O)c([N+](=O)[O-])c4)c(Oc4cnc5[nH]ccc5c4)c3)CC2)=C(c2ccc(Cl)cc2)C1 (stereo partly drawn) [Example 203, 4-(4-{[2-(4-chlorophenyl)-4,4-dimethylcyclohex-1-en-1-yl]methyl}piperazin-1-yl)-N-[(4-{[(1R,4R,5R,6S)-5,6-dihydroxybicyclo[2.2.1]hept-2-yl]methoxy}-3-nitrophenyl)sulfonyl]-2-(1H-pyrrolo[2,3-b]pyridin-5-yloxy)benzamide]
165	CC1(C)CCC(CN2CCN(c3ccc(C(=O)NS(=O)(=O)c4ccc(OCC5C[C@@H]6C[C@H]5[C@@H](O)[C@H]6O)c([N+](=O)[O-])c4)c(Oc4cnc5[nH]ccc5c4)c3)CC2)=C(c2ccc(Cl)cc2)C1 (stereo partly drawn) [Example 204, 4-(4-{[2-(4-chlorophenyl)-4,4-dimethylcyclohex-1-en-1-yl]methyl}piperazin-1-yl)-N-[(4-{[(1R,4R,5S,6R)-5,6-dihydroxybicyclo[2.2.1]hept-2-yl]methoxy}-3-nitrophenyl)sulfonyl]-2-(1H-pyrrolo[2,3-b]pyridin-5-yloxy)benzamide]
